Assay results from ChEMBL document CHEMBL5210307, “Affinity Biochemical Literature for EUbOPEN Chemogenomics Library wave 3” (2023).

By UniProt entry, the sequences of proteins in these tests, tags left out.
UniProt Q15910, whole entry, looked up: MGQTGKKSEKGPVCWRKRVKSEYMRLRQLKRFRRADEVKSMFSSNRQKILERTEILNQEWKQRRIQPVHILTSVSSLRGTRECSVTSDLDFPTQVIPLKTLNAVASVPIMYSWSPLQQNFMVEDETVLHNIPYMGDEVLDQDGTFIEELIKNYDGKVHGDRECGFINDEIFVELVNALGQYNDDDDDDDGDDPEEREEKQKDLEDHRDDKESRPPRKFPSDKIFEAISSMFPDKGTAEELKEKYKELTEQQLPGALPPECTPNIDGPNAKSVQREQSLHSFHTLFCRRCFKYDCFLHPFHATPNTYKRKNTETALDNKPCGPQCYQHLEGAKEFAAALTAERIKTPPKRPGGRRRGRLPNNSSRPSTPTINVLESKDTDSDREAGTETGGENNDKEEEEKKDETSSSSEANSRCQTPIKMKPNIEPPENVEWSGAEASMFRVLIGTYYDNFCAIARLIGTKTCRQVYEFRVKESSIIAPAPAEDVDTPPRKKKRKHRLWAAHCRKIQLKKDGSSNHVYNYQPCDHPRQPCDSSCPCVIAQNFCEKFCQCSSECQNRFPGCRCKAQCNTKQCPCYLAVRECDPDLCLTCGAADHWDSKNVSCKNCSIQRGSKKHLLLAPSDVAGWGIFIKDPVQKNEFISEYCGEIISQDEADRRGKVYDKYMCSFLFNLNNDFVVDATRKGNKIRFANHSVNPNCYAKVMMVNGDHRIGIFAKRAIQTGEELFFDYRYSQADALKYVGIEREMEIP

Target: Histone-lysine N-methyltransferase EZH2 (Homo sapiens) (UniProt Q15910)
Details: Affinity Biochemical Source Knowledge https://doi.org/10.1021/ml3003346

Ki,app: 1.2 nM
Compound: CCCc1cc(C)[nH]c(=O)c1CNC(=O)c1cc(-c2ccnc(N3CCN(C)CC3)c2)cc2c1cnn2C(C)C
